Measurements: patent publication US20230032934A1, “METHOD OF PRODUCING TUMOR-REACTIVE T CELL COMPOSITION USING MODULATORY AGENTS” (Myst Therapeutics, LLC, priority 2019, published 2023)

Key:
Type in all cases: cell-based, human
[1] = system: Population 2 cells derived from primary melanoma tumors; test: Expansion of cells from melanoma tumor fragments in recombinant IL-2; conditions: 300 IU/mL (low) vs 6000 IU/mL (high) recombinant IL-2, 14-31 days
Protocol: (§1) Tumors were processed as described in Example 1 to generate 1-8 mm in diameter fragments or SCS cultures, which were then incubated under conditions to expand T cell populations present within the tumor. Cultures were grown under various tested conditions in the presence of recombinant IL-2 as described below in order to assess cellular expansion. Among the conditions that were tested were the effect of the type of culture plate, culture media, and concentration of IL-2 on cell expansion.
For expansion from tumor fragments, an individual 1-8 mm tumor fragment, obtained as described in Example 1 from primary tumors of donor patients with CRC or melanoma, was placed in a well of a gas-permeable 24-well culture plate or a 6-well plate, and cultured in either RPMI containing 5% human serum or serum free OpTmizer medium with recombinant IL-2 supplemented at a concentration of 300 IU/mL or 6000 IU/mL. The media also contained gentamicin at 10 μg/ml, and a final concentration of 2.0 mM of a L-alanyl-L-glutamine dipeptide form of glutamine (GlutaMAX Supplement; Thermofisher). […]
(§2) For all conditions, cell counts were performed approximately every other day using the NC-200 Automated Cell Counter (Chemometec) and samples were collected for fluorescence-activated cell sorting (FACS). […]

[2] = system: cells processed from melanoma tumor fragments; test: Anti-CD3 (OKT3) stimulation on expansion of melanoma tumor-derived cells; conditions: Donor 6; OpTmizer media, 300 IU/mL IL-2, absence of anti-CD3 stimulation (-OKT3)
Protocol: Cells processed from melanoma tumor fragments as described in Examples 1 and 2, were cultured in the presence or absence of 50 ng/mL OKT3, a human anti-CD3 monoclonal antibody. Cell cultures were carried out to between 14 and 31 days, such as between 14 and 21 days, in either a conventional 6-well plate or a gas permeable culture plate with RPMI or OpTmizer media. The cultures also were supplemented with 300 or 6000 IU/mL recombinant IL-2, 10 μg/mL gentamicin and a final concentration of 2.0 mM of a L-alanyl-L-glutamine dipeptide form of glutamine (GlutaMAX Supplement; Thermofisher). About 50% of cellular media was exchanged every other day beginning on the 5th day of culture as described previously. Cells were then counted using the NC-200 Automated Cell Counter (Chemometec).

[3] = system: Population 2 cells derived from CRC tumors; test: Expansion of cells from CRC tumor single cell suspensions in recombinant IL-2; conditions: 300 IU/mL (low) vs 6000 IU/mL (high) recombinant IL-2; SCS from CRC tumors; 14-31 days
Protocol: as §1
Single cell suspensions (SCSs) were obtained by homogenization and enzyme digestion of primary tumors from donor patients with CRC or melanoma. As described in Example 1, cells were cultured in a conventional 6-well plate or a gas-permeable 24-well culture plate. Where possible, multiple conditions from each donor were initiated and averaged (error bars represent ± standard deviation). For 6-well plates, cells were seeded between 250,000 and 1,000,000 cells/mL and for gas-permeable 24-well plates cells were seeded between 5,000 and 750,000 cells/mL. […]
as §2

“IL-2: cytokine that supports T cell recovery and proliferation” was tested, and the “cellular expansion (total cell number, fold expansion)” value [1] was “did not result in an appreciably distinct expansion response; also recorded: not observed to be necessary for cellular expansion”, the fold expansion [2] was 13 fold and the “cellular expansion (total cell number, fold expansion)” value [3] was “did not result in an appreciably distinct expansion response; also recorded: not observed to be necessary for cellular expansion”.

Entries after “also recorded” stand apart in the source; their conditions may differ.
